System: maltase-glucoamylase (Rattus norvegicus)
Test: Inhibition of rat intestinal maltase at 1000 uM by spectrophotometry

inhibition: < 50%
Structure (SMILES): CC(O)C[C@H]1N[C@H](CO)[C@@H](O)[C@@H]1O (stereo partly specified)

Source: ChEMBL document CHEMBL1151206, “Glycosidase-inhibiting pyrrolidines and pyrrolizidines with a long side chain in Scilla peruviana” (J Nat Prod, 2004)
